Test results reported in patent US10119958B2, “Arrays and methods for guided cell patterning” (University of Washington, priority 2007, dated 2018).
Where two headings read alike, the source gives them in different places.

System: RAW264.7 cells (murine monocyte/macrophage)
[1] = LPS 10 μg/mL, single cells, 238 electrodes

## lipopolysaccharide [LPS]
LPS 0.1 μg/mL
  apoptosis: less than 8%
  necrosis: no necrosis was identified
LPS 1.0 μg/mL
  apoptosis: less than 8%
  necrosis: no necrosis was identified
[1]
  apoptosis (positive Annexin V staining): 66.5%
  necrosis (positive propidium iodide staining): 41.1%
